Here are results for 1 compound from BindingDB's records for doi:10.1124/jpet.301.2.527 (Mercer University, 2002).

Protein sequences, listed by entry. Tags and fused reporters are not part of them.
UniProt P31652, whole entry: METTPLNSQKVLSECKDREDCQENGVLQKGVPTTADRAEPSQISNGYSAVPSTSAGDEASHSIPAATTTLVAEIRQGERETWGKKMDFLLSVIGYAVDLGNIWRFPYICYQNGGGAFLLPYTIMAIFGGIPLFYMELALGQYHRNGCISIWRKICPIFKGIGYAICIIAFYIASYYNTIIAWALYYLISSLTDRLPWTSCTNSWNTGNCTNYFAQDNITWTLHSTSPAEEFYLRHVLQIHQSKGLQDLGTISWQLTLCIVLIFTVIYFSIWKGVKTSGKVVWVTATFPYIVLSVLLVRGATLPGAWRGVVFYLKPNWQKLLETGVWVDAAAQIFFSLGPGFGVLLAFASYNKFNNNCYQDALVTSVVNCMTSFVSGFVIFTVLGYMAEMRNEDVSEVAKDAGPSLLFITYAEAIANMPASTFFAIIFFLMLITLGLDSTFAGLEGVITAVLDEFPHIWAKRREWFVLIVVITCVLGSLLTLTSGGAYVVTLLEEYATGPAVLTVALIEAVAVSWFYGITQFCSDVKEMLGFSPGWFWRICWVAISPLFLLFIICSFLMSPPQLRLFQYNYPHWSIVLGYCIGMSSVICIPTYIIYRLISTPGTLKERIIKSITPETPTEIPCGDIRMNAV

The target of this experiment is Sodium-dependent serotonin transporter (Rattus norvegicus, UniProt P31652).

In turn, `COC(=O)[C@H]1[C@@H](OC(=O)c2ccccc2)C[C@@H]2CC[C@H]1N2C` [Cocaine (-)] registered an inhibition constant Ki of 0.401 µM.

What is called Ki is the equilibrium dissociation constant of an inhibitor or competing ligand from its target. High values mean weaker binding, low ones tighter binding.
